Drawing on ChEMBL document CHEMBL1772947, “Discovery and optimization of a novel, selective and brain penetrant M1 positive allosteric modulator (PAM): the development of ML169, an MLPCN probe” (Bioorg Med Chem Lett, 2011), this text covers Activity for one molecule.

Protein sequences, listed by entry. Tags and fused reporters are not part of them. Lines headed by an entry give the natural chain unless they say otherwise; changes in a name come on top.
UniProt P08482: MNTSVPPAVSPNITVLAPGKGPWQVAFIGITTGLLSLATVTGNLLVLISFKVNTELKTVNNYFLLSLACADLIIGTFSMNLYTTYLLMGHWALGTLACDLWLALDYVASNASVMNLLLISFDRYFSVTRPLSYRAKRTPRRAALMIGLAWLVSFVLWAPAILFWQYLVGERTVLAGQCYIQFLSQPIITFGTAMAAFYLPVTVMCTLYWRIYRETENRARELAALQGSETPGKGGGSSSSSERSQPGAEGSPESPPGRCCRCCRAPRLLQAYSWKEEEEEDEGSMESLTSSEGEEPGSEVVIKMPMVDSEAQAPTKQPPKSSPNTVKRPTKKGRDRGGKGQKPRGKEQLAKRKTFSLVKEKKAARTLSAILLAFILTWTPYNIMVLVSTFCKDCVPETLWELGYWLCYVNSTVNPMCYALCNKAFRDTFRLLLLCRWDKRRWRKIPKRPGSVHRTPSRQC

This assay addresses Muscarinic acetylcholine receptor M1 (Rattus norvegicus) (UniProt P08482). The assay can be described thus: Allosteric modulation at rat M1 receptor expressed in CHO cells by calcium mobilization assay relative to acetylcholine. Format: functional, cell-based. Further details: concentration or dose not given beside the values.

Take `Cc1cc(NC(=O)CS(=O)(=O)c2cn(Cc3ccccc3Cl)c3ccccc23)no1`: the Activity came out at 83%.
